Assay results taken from ChEMBL document CHEMBL3272041, “Quantitative correlations between albumin binding constants and chromatographic Rm values of phenothiazine derivatives” (J Med Chem, 1977).

Sequences of proteins named here, by UniProt entry; tags and fusion partners are left off.
UniProt P02769, whole entry: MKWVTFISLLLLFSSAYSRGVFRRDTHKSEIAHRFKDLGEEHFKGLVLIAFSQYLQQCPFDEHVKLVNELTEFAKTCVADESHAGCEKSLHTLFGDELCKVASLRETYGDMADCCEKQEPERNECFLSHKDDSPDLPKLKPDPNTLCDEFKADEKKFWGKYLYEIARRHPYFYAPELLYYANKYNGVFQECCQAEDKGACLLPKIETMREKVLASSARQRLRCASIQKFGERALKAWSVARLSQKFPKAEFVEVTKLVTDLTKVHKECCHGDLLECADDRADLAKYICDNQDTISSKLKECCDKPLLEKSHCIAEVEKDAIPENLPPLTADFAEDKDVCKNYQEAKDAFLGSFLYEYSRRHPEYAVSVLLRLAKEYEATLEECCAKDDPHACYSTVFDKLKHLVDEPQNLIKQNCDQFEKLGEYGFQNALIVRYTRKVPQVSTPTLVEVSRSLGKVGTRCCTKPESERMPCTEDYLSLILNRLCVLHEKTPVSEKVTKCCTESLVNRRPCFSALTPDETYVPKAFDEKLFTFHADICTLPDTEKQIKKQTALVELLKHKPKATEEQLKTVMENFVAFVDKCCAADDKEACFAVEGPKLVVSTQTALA

Tests used:
[1] = Octanol-water partition coefficient, log P of the compound; assay type: physicochemical
[2] = molecular target: T1, Albumin (Bos taurus, UniProt P02769); test: Binding affinity to bovine serum albumin; assay type: ADME; settings: cattle, isolated protein
[3] = molecular target: T1, Albumin; test: Binding affinity to bovine serum albumin assessed as intrinsic binding constant; assay type: ADME; settings: cattle, isolated protein
[4] = molecular target: T1, Albumin; test: Binding affinity to bovine serum albumin by circular dichroic probe technique; assay type: ADME; settings: cattle, isolated protein
Summary of the method: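 Displacement of sulfaethidole from its primary BSA site, followed by circular dichroism. Solutions were in 0.054 M sodium phosphate, pH 7.44 (25 °C), isotonic with NaCl. Reagent concentrations were 1.45 × 10−5 and 2.11 × 10−5 M. Spectra were scanned from 420 to 265 nm in 10-mm cells, with ellipticity read at 280–286 nm, corrected for drug effect on BSA. Apparent K came from the Klotz equation (n = 1) and was extrapolated to zero drug concentration.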

Row | SMILES | logP [1] | log K [2] | log K [3] | logKa [4]
1 | CN(C)CCCN1c2ccccc2Sc2ccc(Cl)cc21 [CHLORPROMAZINE] | 5.35 | 4.32 | 3.79 | 
2 | OCCN1CCN(CCCN2c3ccccc3Sc3ccc(C(F)(F)F)cc32)CC1 [FLUPHENAZINE] |  |  |  | 4.41
3 | CN1CCN(CCCN2c3ccccc3Sc3ccc(C(F)(F)F)cc32)CC1 [TRIFLUOPERAZINE] |  |  | 3.8 | 
